Biological target: C-X-C chemokine receptor type 2 (Homo sapiens, UniProt P25025)
Assay: Displacement of [125I]IL8 from human recombinant CXCR2 expressed in CHO cells
Format: cell-based

Chains of the proteins cited; added tags and fusions are not shown.
UniProt P25025, whole entry: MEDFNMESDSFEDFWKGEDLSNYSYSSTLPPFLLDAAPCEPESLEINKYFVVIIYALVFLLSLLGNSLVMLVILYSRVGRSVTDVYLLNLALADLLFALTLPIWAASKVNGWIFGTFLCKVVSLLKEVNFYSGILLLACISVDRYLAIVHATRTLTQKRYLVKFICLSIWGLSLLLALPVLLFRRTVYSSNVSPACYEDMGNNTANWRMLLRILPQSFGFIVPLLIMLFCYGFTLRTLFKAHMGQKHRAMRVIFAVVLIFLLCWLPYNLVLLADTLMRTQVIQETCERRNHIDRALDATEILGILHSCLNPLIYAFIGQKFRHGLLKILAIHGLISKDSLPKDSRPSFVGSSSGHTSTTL

IC50: 0.022 µM
Compound: O=C(Nc1ccc([N+](=O)[O-])cc1O)Nc1ccccc1Br
